Our source for the IC50 values is ChEMBL document CHEMBL1127882, “Synthesis of coumarins as subtype-selective inhibitors of monoamine oxidase” (Bioorg Med Chem Lett, 1994).

The chains behind the UniProt entries cited, without tags or fusion partners.
UniProt P19643, whole entry: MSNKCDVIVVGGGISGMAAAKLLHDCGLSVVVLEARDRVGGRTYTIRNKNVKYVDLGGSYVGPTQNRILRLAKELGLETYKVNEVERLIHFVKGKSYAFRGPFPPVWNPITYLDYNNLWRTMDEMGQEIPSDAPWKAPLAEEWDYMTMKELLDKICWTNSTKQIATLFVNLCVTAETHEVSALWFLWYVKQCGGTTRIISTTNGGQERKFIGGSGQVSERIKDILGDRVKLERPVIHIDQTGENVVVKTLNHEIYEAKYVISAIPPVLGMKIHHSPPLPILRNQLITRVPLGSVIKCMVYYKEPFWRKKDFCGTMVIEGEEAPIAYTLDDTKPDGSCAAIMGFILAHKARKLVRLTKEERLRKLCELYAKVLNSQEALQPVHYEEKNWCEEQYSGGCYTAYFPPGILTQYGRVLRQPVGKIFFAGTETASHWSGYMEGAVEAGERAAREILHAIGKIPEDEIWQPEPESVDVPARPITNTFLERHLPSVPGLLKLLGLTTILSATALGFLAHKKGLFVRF
UniProt P21396, whole entry: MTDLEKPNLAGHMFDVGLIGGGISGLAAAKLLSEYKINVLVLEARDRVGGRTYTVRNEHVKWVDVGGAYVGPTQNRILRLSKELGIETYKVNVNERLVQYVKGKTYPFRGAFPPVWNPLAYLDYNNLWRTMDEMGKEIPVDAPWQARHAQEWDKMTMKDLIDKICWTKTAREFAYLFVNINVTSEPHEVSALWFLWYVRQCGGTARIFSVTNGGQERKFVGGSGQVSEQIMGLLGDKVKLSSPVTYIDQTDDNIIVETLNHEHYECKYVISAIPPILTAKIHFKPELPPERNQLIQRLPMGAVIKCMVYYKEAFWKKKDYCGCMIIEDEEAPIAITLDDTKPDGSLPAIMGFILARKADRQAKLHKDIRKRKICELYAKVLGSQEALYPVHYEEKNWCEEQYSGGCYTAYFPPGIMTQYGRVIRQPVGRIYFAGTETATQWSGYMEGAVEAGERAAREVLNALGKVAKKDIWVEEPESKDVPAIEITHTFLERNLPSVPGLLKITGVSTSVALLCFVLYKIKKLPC

The target in assay [1] is Amine oxidase [flavin-containing] B (Rattus norvegicus, UniProt P19643). The experiment in a line: biochemical. It is filed as tissue-based, Brain.
Assay [2] deals with Amine oxidase [flavin-containing] A (Rattus norvegicus, UniProt P21396). The experiment in a line: biochemical. It is filed as tissue-based, Brain.

Consider `COc1cc(Br)c2oc(C3CCNCC3)cc2c1` [BROFAROMINE], for which the concentration for half-maximal inhibition (IC50) (in general, the concentration needed to halve the response being measured) in assay [1] was over 1000 nM.
For `NCCNC(=O)c1ccc(Cl)cn1` [LAZABEMIDE], the IC50 in assay [2] is over 10000 nM.
On the same count and under the same terms, to `CCS(=O)(=O)Oc1ccc2c(C)c(C)c(=O)oc2c1` [ESUPRONE] belongs 8 nM.
